By UniProt entry, the sequences of proteins in these tests, tags left out. Where a name states a change or a piece, a line headed by the entry shows the natural chain unless it says otherwise.
UniProt O43318: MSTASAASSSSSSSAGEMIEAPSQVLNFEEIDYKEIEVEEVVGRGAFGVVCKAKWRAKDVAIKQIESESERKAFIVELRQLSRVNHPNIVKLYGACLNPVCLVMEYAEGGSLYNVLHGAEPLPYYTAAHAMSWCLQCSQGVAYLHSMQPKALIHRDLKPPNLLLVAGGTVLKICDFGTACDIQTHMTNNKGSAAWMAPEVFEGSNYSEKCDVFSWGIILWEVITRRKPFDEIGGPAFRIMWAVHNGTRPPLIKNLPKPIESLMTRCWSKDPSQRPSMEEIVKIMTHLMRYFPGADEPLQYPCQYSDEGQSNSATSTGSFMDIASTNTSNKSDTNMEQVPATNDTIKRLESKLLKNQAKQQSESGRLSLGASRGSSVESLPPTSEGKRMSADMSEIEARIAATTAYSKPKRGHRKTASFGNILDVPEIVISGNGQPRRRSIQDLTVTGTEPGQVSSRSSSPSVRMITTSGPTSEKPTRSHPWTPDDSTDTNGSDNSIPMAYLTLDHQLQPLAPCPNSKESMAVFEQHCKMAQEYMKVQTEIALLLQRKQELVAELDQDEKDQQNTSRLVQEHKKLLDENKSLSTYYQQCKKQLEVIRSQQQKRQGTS

In ChEMBL document CHEMBL1759936, “Oxindole derivatives as inhibitors of TAK1 kinase” (Bioorg Med Chem Lett, 2011):

Molecular target: TAK1/TAB1 (Homo sapiens, UniProt O43318)
Assay: Competitive inhibition of recombinant TAK1-TAB1 assessed as [33P]gamma-ATP incorporation into substrate histone H1 peptide by filter plate assay
Type: protein-complex assay

## COc1cc(O)c2c(c1)/C=C/C[C@H](O)[C@H](O)C(=O)/C=C\C[C@H](C)OC2=O
  IC50: 8 nM
